Paper PMC13107563 (Protein & Cell, 2025)

The chains behind the UniProt entries cited, without tags or fusion partners.
UniProt Q9GZQ6, whole entry H315A: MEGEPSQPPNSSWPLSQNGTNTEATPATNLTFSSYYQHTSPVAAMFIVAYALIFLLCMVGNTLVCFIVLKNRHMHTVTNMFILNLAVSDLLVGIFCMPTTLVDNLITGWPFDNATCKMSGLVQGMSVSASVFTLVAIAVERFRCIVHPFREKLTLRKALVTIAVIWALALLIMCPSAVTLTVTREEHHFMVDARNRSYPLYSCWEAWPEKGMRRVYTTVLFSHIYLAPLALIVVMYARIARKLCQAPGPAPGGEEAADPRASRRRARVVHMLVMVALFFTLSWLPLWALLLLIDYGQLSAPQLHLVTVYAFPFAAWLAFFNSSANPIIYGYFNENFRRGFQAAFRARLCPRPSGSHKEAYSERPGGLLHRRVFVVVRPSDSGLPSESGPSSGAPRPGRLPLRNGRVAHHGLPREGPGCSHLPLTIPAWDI
UniProt Q9GZQ6, whole entry Q123A: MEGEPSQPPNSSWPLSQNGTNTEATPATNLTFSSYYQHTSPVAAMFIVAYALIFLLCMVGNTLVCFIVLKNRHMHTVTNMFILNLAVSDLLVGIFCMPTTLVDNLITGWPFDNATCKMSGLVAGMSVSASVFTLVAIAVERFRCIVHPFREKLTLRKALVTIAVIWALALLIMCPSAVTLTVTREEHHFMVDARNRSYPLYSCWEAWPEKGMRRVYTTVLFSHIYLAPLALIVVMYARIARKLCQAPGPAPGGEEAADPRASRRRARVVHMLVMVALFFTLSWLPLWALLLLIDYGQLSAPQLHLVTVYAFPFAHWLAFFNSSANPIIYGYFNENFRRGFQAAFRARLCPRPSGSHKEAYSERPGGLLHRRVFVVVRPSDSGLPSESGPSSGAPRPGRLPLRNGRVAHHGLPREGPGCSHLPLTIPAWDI
UniProt Q9GZQ6, whole entry D103A: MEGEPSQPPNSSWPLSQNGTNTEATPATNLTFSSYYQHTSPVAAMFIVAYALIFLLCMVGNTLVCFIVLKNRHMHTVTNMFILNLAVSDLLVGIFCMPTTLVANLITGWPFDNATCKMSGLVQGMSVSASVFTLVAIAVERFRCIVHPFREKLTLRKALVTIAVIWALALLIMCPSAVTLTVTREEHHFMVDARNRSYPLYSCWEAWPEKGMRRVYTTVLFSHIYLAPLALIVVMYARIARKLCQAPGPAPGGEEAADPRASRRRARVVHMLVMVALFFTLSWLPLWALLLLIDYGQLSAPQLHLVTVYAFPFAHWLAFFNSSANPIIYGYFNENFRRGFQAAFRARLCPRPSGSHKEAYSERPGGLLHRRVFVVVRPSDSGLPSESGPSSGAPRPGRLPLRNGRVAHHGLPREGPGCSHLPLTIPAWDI
UniProt Q9GZQ6, whole entry Y216A: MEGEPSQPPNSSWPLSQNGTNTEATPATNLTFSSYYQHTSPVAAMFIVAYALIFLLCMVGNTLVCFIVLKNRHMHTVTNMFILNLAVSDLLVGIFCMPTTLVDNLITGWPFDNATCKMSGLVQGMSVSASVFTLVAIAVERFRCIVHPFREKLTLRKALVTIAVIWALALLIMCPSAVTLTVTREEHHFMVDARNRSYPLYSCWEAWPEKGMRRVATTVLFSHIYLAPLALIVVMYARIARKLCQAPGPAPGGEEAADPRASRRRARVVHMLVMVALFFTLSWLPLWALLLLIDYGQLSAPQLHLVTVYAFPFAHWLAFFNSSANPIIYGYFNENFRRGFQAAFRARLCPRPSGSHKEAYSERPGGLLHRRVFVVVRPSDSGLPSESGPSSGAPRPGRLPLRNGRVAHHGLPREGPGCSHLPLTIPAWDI
UniProt Q9GZQ6, whole entry T217A: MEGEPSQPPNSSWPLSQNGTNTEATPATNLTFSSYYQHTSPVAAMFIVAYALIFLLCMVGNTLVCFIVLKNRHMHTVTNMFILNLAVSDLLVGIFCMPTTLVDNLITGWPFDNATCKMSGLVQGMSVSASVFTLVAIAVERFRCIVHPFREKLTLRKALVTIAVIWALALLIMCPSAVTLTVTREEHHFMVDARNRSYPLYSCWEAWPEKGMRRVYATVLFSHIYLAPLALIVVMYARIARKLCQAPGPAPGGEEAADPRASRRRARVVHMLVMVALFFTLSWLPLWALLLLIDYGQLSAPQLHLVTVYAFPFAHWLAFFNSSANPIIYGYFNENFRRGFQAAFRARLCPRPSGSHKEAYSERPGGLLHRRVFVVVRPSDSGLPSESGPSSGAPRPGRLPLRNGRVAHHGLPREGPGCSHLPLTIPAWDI
UniProt Q9GZQ6, whole entry W204A: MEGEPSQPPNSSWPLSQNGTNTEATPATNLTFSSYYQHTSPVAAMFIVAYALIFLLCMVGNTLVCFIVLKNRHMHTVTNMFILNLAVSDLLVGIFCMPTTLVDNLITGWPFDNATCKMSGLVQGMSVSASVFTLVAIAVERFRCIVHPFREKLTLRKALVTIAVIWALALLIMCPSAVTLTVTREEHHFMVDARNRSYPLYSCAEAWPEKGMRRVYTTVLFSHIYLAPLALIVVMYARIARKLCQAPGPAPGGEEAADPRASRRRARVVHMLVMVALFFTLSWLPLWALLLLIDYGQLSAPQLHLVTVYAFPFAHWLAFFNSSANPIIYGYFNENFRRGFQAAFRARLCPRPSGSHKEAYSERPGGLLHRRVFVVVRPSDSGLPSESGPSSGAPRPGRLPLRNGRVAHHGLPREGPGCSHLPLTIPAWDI
UniProt Q9GZQ6, whole entry E185A: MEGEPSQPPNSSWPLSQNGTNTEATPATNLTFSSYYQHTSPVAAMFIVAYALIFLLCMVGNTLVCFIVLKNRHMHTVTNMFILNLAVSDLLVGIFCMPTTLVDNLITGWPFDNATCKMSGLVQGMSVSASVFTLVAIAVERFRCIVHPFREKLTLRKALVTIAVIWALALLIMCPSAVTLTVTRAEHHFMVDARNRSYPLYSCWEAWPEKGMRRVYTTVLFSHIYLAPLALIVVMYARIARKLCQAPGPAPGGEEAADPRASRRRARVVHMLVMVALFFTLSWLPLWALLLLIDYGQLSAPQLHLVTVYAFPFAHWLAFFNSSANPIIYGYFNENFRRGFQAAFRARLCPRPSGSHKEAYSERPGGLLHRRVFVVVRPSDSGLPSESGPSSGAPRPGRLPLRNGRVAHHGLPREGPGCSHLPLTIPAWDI
UniProt Q9GZQ6, whole entry T100A: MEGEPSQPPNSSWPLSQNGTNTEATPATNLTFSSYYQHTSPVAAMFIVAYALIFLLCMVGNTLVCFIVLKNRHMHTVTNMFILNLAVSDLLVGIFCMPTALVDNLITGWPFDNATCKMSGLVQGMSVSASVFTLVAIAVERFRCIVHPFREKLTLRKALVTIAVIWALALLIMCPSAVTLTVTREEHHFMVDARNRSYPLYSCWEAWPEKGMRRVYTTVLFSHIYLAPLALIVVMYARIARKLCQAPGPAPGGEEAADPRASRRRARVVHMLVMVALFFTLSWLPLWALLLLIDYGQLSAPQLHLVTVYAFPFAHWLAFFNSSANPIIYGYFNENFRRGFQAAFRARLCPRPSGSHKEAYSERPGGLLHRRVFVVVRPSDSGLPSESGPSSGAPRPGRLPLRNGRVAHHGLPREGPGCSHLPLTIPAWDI
UniProt Q9GZQ6, whole entry S202A: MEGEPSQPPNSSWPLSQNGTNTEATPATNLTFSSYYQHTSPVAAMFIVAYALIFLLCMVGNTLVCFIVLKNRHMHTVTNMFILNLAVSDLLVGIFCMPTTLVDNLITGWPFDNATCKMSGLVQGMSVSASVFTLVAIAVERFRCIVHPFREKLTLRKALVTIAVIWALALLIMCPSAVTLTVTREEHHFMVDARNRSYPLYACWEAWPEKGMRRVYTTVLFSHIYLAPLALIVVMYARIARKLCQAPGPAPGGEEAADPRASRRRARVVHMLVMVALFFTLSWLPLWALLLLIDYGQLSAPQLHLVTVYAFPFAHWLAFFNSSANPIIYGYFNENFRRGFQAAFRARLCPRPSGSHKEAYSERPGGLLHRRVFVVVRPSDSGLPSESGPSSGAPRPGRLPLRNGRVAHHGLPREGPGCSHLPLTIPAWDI
UniProt Q9GZQ6, whole entry W287A: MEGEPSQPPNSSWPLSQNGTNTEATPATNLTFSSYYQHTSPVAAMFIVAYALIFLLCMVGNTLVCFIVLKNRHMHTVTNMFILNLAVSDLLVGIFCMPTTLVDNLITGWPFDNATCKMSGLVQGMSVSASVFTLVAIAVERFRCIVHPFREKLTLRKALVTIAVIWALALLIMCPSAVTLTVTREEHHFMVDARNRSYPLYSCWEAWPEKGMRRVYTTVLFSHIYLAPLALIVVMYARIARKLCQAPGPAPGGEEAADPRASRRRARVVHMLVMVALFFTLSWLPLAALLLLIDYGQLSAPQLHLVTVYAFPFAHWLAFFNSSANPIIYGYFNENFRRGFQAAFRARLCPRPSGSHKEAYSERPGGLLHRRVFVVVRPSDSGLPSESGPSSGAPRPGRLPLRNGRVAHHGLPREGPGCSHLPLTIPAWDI
UniProt Q9GZQ6, whole entry W287F: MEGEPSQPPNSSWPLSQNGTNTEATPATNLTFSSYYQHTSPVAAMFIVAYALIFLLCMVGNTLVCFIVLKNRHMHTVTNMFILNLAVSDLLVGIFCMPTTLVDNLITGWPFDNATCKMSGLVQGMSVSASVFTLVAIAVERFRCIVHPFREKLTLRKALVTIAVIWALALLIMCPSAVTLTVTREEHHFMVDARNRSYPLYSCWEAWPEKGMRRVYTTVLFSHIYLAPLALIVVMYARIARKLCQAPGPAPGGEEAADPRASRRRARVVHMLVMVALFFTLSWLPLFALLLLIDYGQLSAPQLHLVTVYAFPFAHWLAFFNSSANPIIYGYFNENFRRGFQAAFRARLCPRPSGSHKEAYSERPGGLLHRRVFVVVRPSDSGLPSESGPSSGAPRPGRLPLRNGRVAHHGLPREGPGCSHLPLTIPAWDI
UniProt Q9GZQ6, whole entry W287L: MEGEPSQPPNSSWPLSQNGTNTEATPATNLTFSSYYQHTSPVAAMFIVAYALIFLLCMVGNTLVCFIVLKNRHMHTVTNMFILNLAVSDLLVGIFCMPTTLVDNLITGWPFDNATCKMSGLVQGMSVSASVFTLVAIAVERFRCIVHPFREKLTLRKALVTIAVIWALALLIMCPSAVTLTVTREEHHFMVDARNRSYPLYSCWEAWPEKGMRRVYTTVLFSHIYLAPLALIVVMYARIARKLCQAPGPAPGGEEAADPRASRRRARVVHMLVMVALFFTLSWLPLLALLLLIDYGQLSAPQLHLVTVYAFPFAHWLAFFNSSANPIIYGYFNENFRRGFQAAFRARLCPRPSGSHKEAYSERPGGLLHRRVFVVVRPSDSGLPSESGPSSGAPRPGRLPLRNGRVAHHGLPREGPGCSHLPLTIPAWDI

Experiments:
Assay type in all cases: cell-based
[1] = target: T1, NPFFR1 H315A (Homo sapiens, UniProt Q9GZQ6, H315A); experiment: GloSensor cAMP accumulation assay, NPFFR1 H315A; settings: HEK293T, Gi signaling, mean ± S.E.M., three independent experiments in triplicates
T1 construct: expressed in transfected cells; host or cells: HEK293T

[2] = target: T2, NPFFR1 Q123A (Homo sapiens, UniProt Q9GZQ6, Q123A); experiment: GloSensor cAMP accumulation assay, NPFFR1 Q123A; settings: HEK293T, Gi signaling, mean ± S.E.M., three independent experiments in triplicates
T2 construct: expressed in transfected cells; host or cells: HEK293T

[3] = target: T3, NPFFR1 D103A (Homo sapiens, UniProt Q9GZQ6, D103A); experiment: GloSensor cAMP accumulation assay, NPFFR1 D103A; settings: HEK293T, Gi signaling, mean ± S.E.M., three independent experiments in triplicates
T3 construct: expressed in transfected cells; host or cells: HEK293T

[4] = target: T4, NPFFR1 Y216A (Homo sapiens, UniProt Q9GZQ6, Y216A); experiment: GloSensor cAMP accumulation assay, NPFFR1 Y216A; settings: HEK293T, Gi signaling, three independent experiments in triplicates
T4 construct: expressed in transfected cells; host or cells: HEK293T

[5] = target: T5, NPFFR1 T217A (Homo sapiens, UniProt Q9GZQ6, T217A); experiment: GloSensor cAMP accumulation assay, NPFFR1 T217A; settings: HEK293T, Gi signaling, three independent experiments in triplicates
T5 construct: expressed in transfected cells; host or cells: HEK293T

[6] = target: T6, NPFFR1 W204A (Homo sapiens, UniProt Q9GZQ6, W204A); experiment: GloSensor cAMP accumulation assay, NPFFR1 W204A; settings: NPFFR1 W204A (expression level 33.06 %WT), HEK293T, Gi signaling; three independent experiments in triplicates
T6 construct: expressed in transfected cells; host or cells: HEK293T

[7] = target: T7, NPFFR1 E185A (Homo sapiens, UniProt Q9GZQ6, E185A); experiment: GloSensor cAMP accumulation assay, NPFFR1 E185A; settings: NPFFR1 E185A (expression level 34.94 %WT), HEK293T, Gi signaling; three independent experiments in triplicates
T7 construct: expressed in transfected cells; host or cells: HEK293T

[8] = target: T8, NPFFR1 T100A (Homo sapiens, UniProt Q9GZQ6, T100A); experiment: GloSensor cAMP accumulation assay, NPFFR1 T100A; settings: HEK293T, Gi signaling, mean ± S.E.M., three independent experiments in triplicates
T8 construct: expressed in transfected cells; host or cells: HEK293T

[9] = target: T9, NPFFR1 S202A (Homo sapiens, UniProt Q9GZQ6, S202A); experiment: GloSensor cAMP accumulation assay, NPFFR1 S202A; settings: HEK293T, Gi signaling, mean ± S.E.M., three independent experiments in triplicates
T9 construct: expressed in transfected cells; host or cells: HEK293T

[10] = target: T10, NPFFR1 W287A (Homo sapiens, UniProt Q9GZQ6, W287A); experiment: GloSensor cAMP accumulation assay, NPFFR1 W287A; settings: HEK293T, Gi signaling, three independent experiments in triplicates
T10 construct: expressed in transfected cells; host or cells: HEK293T

[11] = target: T11, NPFFR1 W287F (Homo sapiens, UniProt Q9GZQ6, W287F); experiment: GloSensor cAMP accumulation assay, NPFFR1 W287F; settings: HEK293T, Gi signaling, three independent experiments in triplicates
T11 construct: expressed in transfected cells; host or cells: HEK293T

[12] = target: T12, NPFFR1 W287L (Homo sapiens, UniProt Q9GZQ6, W287L); experiment: GloSensor cAMP accumulation assay, NPFFR1 W287L; settings: HEK293T, Gi signaling, three independent experiments in triplicates
T12 construct: expressed in transfected cells; host or cells: HEK293T

Measured: EC50

CC(C)C[C@H](NC(=O)[C@H](CC(N)=O)NC(=O)[C@@H]1CCCN1C(=O)[C@@H](N)C(C)C)C(=O)N1CCC[C@H]1C(=O)N[C@@H](CCC(N)=O)C(=O)N[C@@H](CCCNC(=N)N)C(=O)N[C@@H](Cc1ccccc1)C(N)=O [RFRP-3, RF-amide related peptide-3]
0.00631 µM: [2]
0.0002 µM: [9]
0.2 µM: [8]
> 30.2 µM: all other assays above
